# System: C2C12, C3H10T1/2, ST2 and MC3T3-E1 cells
# Test: Changes in relative gene expression after BMP2 treatment (Affymetrix GeneChips)
# Type: cell-based, mouse
# Method: FIG. 10 represents the effect of BMP2 on the expression of Gas6 and Ufo/Ax1 in pluripotential mensenchymal cell lines C3H10T1/2 and C2C1/2 cells and the osteoblast-like cells MC3T3-E1 were cultured in the presence or absence of 100 ng of recombinant BMP2 for 4 (4d) or 3 (3d) days. Total RNAs were extracted at using the RNAplus kit provided by Quantum. Changes in relative gene expression were assessed by using GeneChips (Affymetrix). Results are expressed in ratios using the untreated cells values as denominators, significant changes in expression (pval<0.1 and ratios>1.5x) are indicated with **.
# Mouse cell lines representing different stages of osteoblastic differentiation, C2C12, C2H10T1/2, ST2 and MC3T3-E1, were grown in the presence of agents capable of the induction of osteoblastic differentiation in vitro such as BMP2 and Sonic Hedgehog or in the presence of TGF beta (negative control) or with serum alone. Primary cells derived from mouse calvaria were also cultured for 0, 2, 7 14 and 21 days and RNA prepared for each time point. For example, C3H10T ½ and C2C12 can be obtained from the ATCC (Manassas, Va., USA) under the collection numbers CCL-226 and CRL-1772, respectively.
# Cell extracts for RNA preparation were collected at different time points by using the RNAplus kit provided by Quantum. For every resulting sample, labeled cDNA probe was then generated by reverse transcription followed by in vitro transcription incorporating biotin as part of the standard Affymetrix protocol.
# The probes were hybridized in duplicate to the complete series of Affymetrix 35K mouse chips (Mu19KsubA, Mu19KsubB, Mu19KsubC, Mu11KsubA, Mu11KsubB and the chips scanned by laser after hybridization and staining. The final data set consisted in of a total of 580 scan files, each obtained using the GeneChip software, which for each qualifier in the file assigns an intensity which is a measure of the corresponding transcript abundance. The output files were further processed into a format which for each intensity adds an estimate of the standard deviation of the noise (Teilhaber et al, 2000, J. Comp. Biol).
molecule,measurement,setting,value
"BMP-2: recombinant BMP2, agent capable of the induction of osteoblastic differentiation in vitro (protein, UniProt P12643 283-396, looked up) Bone morphogenetic protein 2: QAKHKQRKRLKSSCKRHPLYVDFSDVGWNDWIVAPPGYHAFYCHGECPFPLADHLNSTNHAIVQTLVNSVNSKIPKACCVPTELSAISMLYLDENEKVVLKNYQDMVVEGCGCR",Ufo/Ax1 expression,"C2C12, C3H10T1/2, ST2 and MC3T3-E1 cells",repressed
same,expression of CTGF,"C2C12, C3H10T1/2, ST-2 and MC3T3-E1 cells",strongly induces
same,NOV gene expression,"C2C12, C3H10T 1/2 and MC3T3-E1 cells",dramatic decrease
same,Gas6 expression,"C2C12, ST2 and MC3T3-E1",significantly upregulated
same,EphB3 receptor gene expression,C2C12 and C31410T1/2,up-regulated
same,LRP1 expression,"C3H10T1/2, ST-2 and MC3T3-E1 cells",down-regulated
same,LDLR expression,ST-2 and C3H10T1/2 cells,up-regulated

# From US20040265808A1, “Genes involved in osteogenesis, and methods of use” (priority 2001, published 2004)
